Test [1] has as its target T1, PfENR (Plasmodium falciparum, UniProt Q9BH77).
T1 construct: The overexpression of PfENR was carried out [22]; made in house
Type of test: binding. As to the method: Binding studies of [^3H] […] Briefly, for gel filtration chromatography, 2 ml Sephadex G-25 column was packed and equilibrated with the reaction buffer. For each run 50 μl of the reaction mixture was loaded and 20 fractions of 100 μl were collected at 0.25 ml/min flow rate. All the fractions were spotted on Whatman 3 filter paper and dried before taking the counts. In the filter binding assay method, the reaction mixtures were directly applied on the activated Polyvinylidene difluoride (PVDF) membrane fixed in a filtration assembly. The filters were washed with 200 μl of reaction buffer and dried. Dried filters were transferred to vials containing 5 ml scintillation fluid and the radioactivity measured using a Hewlett Packard liquid scintillation counter.
To check the binding of [^3H] […] The concentration of [^3H]
[^3H] […] (FIG. 4d) Double reciprocal plot of the same data is shown in the inset.
The binding constants for the above experiments were determined from saturation plots and by Scatchard plot or double reciprocal plot using equation 2a and 2b described under evaluation section.

By UniProt entry, the sequences of proteins in these tests, tags left out.
UniProt Q9BH77, entry or part of it: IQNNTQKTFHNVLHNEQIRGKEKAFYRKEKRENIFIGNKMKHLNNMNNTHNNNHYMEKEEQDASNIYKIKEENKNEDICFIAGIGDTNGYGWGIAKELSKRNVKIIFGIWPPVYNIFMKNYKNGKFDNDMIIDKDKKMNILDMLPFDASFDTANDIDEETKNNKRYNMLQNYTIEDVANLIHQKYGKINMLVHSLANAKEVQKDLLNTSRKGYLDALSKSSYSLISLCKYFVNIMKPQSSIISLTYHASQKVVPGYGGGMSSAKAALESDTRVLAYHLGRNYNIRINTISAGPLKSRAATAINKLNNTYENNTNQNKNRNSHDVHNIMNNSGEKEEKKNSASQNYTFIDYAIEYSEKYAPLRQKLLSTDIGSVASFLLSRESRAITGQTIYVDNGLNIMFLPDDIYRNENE

Test [2] addresses T1, PfENR. Type of test: biochemical. As to the method:
The reaction was started by the addition of 50 nM of PfENR.
The reaction was monitored at 340 nm and the formation of (NAD^+) was plotted as a function of time using equation 3 to get the dissociation constant by non-linear regression analysis of the data.
Progress curves gave the value of kobs and the k5 or association rate constants were determined by fitting the values of kobs with experimentally determined k6 values in equation 4.
The relationship between Ki, k5, k6 and kobs is described by equation 4.
The overall inhibition constant Ki* is calculated by equation 5.

Like-named read-outs stand apart in the source and are kept apart here.

Regarding (−) epigallocatechin gallate [EGCG], the Kd in test [1] (read-out: Kd of EGCG in the presence of triclosan, Scatchard plot, 10 μM triclosan) worked out at 77.6 ± 5.3 nM; in test [1] (read-out: dissociation constant of [3H]EGCG with PfENR, Scatchard plot, absence of triclosan) it was 512 ± 28.8 nM; in test [1] (read-out: dissociation constant of [3H]EGCG with PfENR, saturation kinetics, absence of triclosan, filter binding), 438 ± 8.2 nM. For the same substance, in test [2] (triclosan with PfENR in presence of the catechin), the “Association rate constant k5 of triclosan” value is 8.4 ± 0.24 [10^−3]s^−1. Also, the “Dissociation rate constant [k6] of k5 of TCL, [10^−5] s^−1” value in test [2] (triclosan, dilution method, in presence of the catechin named in the row) is 1.6 ± 0.078 [10^−5] s^−1.

For the origin of these results see patent US20080161247A1, “Synergistic composition for modulating activity of substrate analogs for NAD+, NADP+, NADH or NADPH dependent enzymes and process thereof” (priority 2006, published 2008).
